# scFv variants of Ab-91 (heavy chain) against a SARS-CoV-2 spike peptide

From the AlphaSeq antibody data of Engelhart et al. 2022 (doi:10.1038/s41597-022-01779-4), copy in the FLAb collection.

The target is the same throughout: PDVDLGDISGINAS, from the HR2 region of SARS-CoV-2 spike.

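The starting antibody came from a phage panning campaign against this peptide. The library (AAYL51) carries one to three amino acid substitutions per variant, with no insertions or deletions. In AlphaSeq, yeast of one mating type display the scFv and yeast of the other type display the target. The frequency of each diploid, read from paired DNA barcodes, reflects how well the two displayed proteins bind. The ratio of observed to expected reads was calibrated, replicate by replicate, on BCL2-family standards whose Kd was known from biolayer interferometry. There are three technical replicates.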

The variants keep the light chain, the linker and the frameworks of Ab-91 (scFv order VL, the linker GGGGSGGGGSGGGGS, VH).
VL: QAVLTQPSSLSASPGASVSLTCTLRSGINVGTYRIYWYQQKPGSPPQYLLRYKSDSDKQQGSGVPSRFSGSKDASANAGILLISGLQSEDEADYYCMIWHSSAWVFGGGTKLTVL
VH: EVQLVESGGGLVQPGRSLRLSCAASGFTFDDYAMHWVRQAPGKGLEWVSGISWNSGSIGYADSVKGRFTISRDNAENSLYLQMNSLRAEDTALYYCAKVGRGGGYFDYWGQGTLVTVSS

Variants are written as CDR1, CDR2 and CDR3 of the heavy chain (limits as in the source). Parent: GFTFDDYAMH, GISWNSGSIGYADSVK, VGRGGGYFDY. Numbers give log10(Kd / nM), so 0 is 1 nM and 3 is 1 µM. Smaller is tighter. A mean of the replicates is given; it leaves out those without a signal. Where no diploid with the target was found in any replicate, the entry reads "no signal": below detection, most likely a poor binder, though not proof of it. For reference, the parent read 1.86 as the reference entry and 0.88 as a member of this library.

CDR-H1,CDR-H2,CDR-H3,mean log10 Kd (nM),replicates with signal,control signals
GFTFDDYAMH,GISWNSGSIGYVDSVK,VGRTGGYIDY,no signal,0 of 3,2 of 9
GFTFDDYAMH,LISWNSGDIGYADSPK,VGRGGGYFDY,no signal,0 of 3,0 of 9
GMTFDDYAMH,GISWNSNSIGYAMSVK,VGRGGGYFDY,no signal,0 of 3,0 of 9
GHTFDDYAMH,SISWNSGSIGYADSVK,VGRGGRYFDY,no signal,0 of 3,0 of 9
GFQVDDYAMH,GISWNSGSIGYADSVK,VGRGEGYFDY,5.14,2 of 3,6 of 9
GFTFDDAAMH,GISWNSGSIGYADSVF,VGRGGKYFDY,no signal,0 of 3,3 of 9
GFSFDYYAMH,GISWNSGSIGYADSVK,VTRGGGYFDY,3.54,3 of 3,2 of 9
GYTFDDYAMH,GISWNSGGIGYYDSVK,VGRGGGYFDY,no signal,0 of 3,1 of 9
RFHFDDYAMH,GIRWNSGSIGYADSVK,VGRGGGYFDY,no signal,0 of 3,0 of 9
GFTFDDYATH,GISWNIGSIGYADSVK,VGRGGGGFDY,no signal,0 of 3,0 of 9
GFTFDDYAMH,GIDWNSGSIWYADSVK,VGSGGGYFDY,no signal,0 of 3,1 of 9
GFTFDDYAMH,GISWNSGSFGYASSVK,VGRCGGYFDY,2.99,3 of 3,4 of 9
GFTFDDYAMH,GISWNSGSIGYAMSRK,VGRGCGYFDY,4.59,2 of 3,2 of 9
GFTFDDYAMH,GISWNSGSIGYKDSVK,VGRGETYFDY,no signal,0 of 3,0 of 9
GFTFDNYAMH,GISWNSGSIGYADSVP,PGRGGGYFDY,5.76,3 of 3,4 of 9
GFTFDDYAMH,GISWNSGSIGWADSVK,SGRGGGYFDW,4.65,1 of 3,1 of 9
GFTFDDVAMH,GISWNSSSIGYADSVK,VGRGGGYFDN,2.51,1 of 3,0 of 9
GFTFDDYAMH,GDSWNSGRIGYADSVK,VGRGGGYADY,5.21,1 of 3,1 of 9
GFTFDDYAMH,GIYWNSGSIGYADSTK,VGRGGGYFDY,4.05,1 of 3,1 of 9
GFTFDDYAMH,GISWNAGSDGYCDSVK,VGRGGGYFDY,1.25,3 of 3,1 of 9
GFTFDDYAMH,VISWNSGEIGYADSHK,VGRGGGYFDY,no signal,0 of 3,0 of 9
GFWCDDYAMH,GISWNSGSIGDADSVK,VGRGGGYFDY,5.06,1 of 3,1 of 9
GFTFDDYAMH,KISWNSGSIGYATSVK,VGRGGGYFFY,4.85,2 of 3,4 of 9
GWTFDDYAMH,GISWNSGSTGIADSVK,VGRGGGYFDY,4.06,1 of 3,2 of 9
GFTFDDYAIH,GISWNSGSIGYADSVK,VFRGKGYFDY,4.44,2 of 3,2 of 9
WFTFDDYAMH,GISVNSGSIGYAASVK,VGRGGGYFDY,5.58,1 of 3,2 of 9
GFTFDDYAMH,GIEWQSGSIGYADSEK,VGRGGGYFDY,no signal,0 of 3,0 of 9
GFTFDDYAMH,GISWNSGSIGYRDSVK,CGRNGGYFDY,5.03,1 of 3,2 of 9
GFTFWDYAMH,GISWNSGSIGYADSVK,VGIGGGYFDY,2.62,3 of 3,2 of 9
EHTFDDYAMH,GISWNSGSIGYADSVR,VGRGGGYFDY,no signal,0 of 3,0 of 9
GITFDDYAMH,GISWNSGSIGMAISVK,VGRGGGYFDY,no signal,0 of 3,0 of 9
GQTFDDEAMH,GISWNSNSIGYADSVK,VGRGGGYFDY,no signal,0 of 3,0 of 9
GFTFSDPAMH,GISWISGSIGYADSVK,VGRGGGYFDY,no signal,0 of 3,0 of 9
GFTFWDYAQH,GISWNSGSCGYADSVK,VGRGGGYFDY,4.93,1 of 3,1 of 9
GFTFDDYAMH,GFSWNSKSIGYADSVK,VGRGGEYFDY,no signal,0 of 3,2 of 9
GFTNDDYAMH,GISWNSGSIGYARSVK,VGRGGGYFDP,no signal,0 of 3,1 of 9
GFTFDDYAMH,GISWNSGFIGYADCVA,VGRGGGYFDY,no signal,0 of 3,0 of 9
GFTFDDYAMH,GISWNLGSAGYADSVK,VGRGGGYFDC,2.91,3 of 3,4 of 9
GFTFDHYAMH,GIMWNSGSIGYADSVK,VGRGGGCFDY,1.06,3 of 3,2 of 9
GFTFDDYAMH,GIYWNSGSIGYADSVK,VGRGGGYNNY,5.32,2 of 3,7 of 9
WFTFDDYAMH,GISWNSGSIGYADSVM,VGRIGGYFDY,5.39,1 of 3,4 of 9
GFTFDDYFHH,GMSWNSGSIGYADSVK,VGRGGGYFDY,no signal,0 of 3,1 of 9
GFTFDDGAMH,GISWNSGSIGYADSVK,LGRRGGYFDY,no signal,0 of 3,2 of 9
GFTFDDYAMH,GASWNSHPIGYADSVK,VGRGGGYFDY,4.42,2 of 3,5 of 9
GFTFQQYAMH,GISWNSGSIGYADSVK,VGRGGGYFDY,4.46,2 of 3,4 of 9
GFTFDDYAMH,GISRNSGSIGYASSVK,VGRGGGYFDY,no signal,0 of 3,1 of 9
GFTFDDYAMS,GISWNPGSIGYADSVK,VGRGGGYFDY,no signal,0 of 3,0 of 9
GFTFDDYAMH,GISWNSGSIGYADSVL,CGRGGGWFDY,5.53,3 of 3,7 of 9
GFTFDDYAMH,AISWNSGSIGFADSVK,VLRGGGYFDY,no signal,0 of 3,1 of 9
GFGFDDYEMH,GISWNSGSIGYAKSVK,VGRGGGYFDY,4.18,1 of 3,0 of 9
GFTFDDYAMH,WISWNSESIGYADSVK,VGRGIGYFDY,2.41,1 of 3,0 of 9
GFTFDDYAMH,GISWNSGSIGYADMVK,VGRGGGYFHD,5.01,1 of 3,1 of 9

The closing 5 entries, repeated:

CDR-H1,CDR-H2,CDR-H3,mean log10 Kd (nM),replicates with signal,control signals
GFTFDDYAMH,GISWNSGSIGYADSVL,CGRGGGWFDY,5.53,3 of 3,7 of 9
GFTFDDYAMH,AISWNSGSIGFADSVK,VLRGGGYFDY,no signal,0 of 3,1 of 9
GFGFDDYEMH,GISWNSGSIGYAKSVK,VGRGGGYFDY,4.18,1 of 3,0 of 9
GFTFDDYAMH,WISWNSESIGYADSVK,VGRGIGYFDY,2.41,1 of 3,0 of 9
GFTFDDYAMH,GISWNSGSIGYADMVK,VGRGGGYFHD,5.01,1 of 3,1 of 9

Empty control strains, which show no peptide, gave a signal in 21% of pairings with library AAYL51; the median was 4.54 and 95% of these signals were weaker than 3.26. No background was subtracted. The control count says in how many pairings with the empty strains this scFv gave a signal.